# Assay results: PubChem BioAssay AID602247 (The Scripps Research Institute Molecular Screening Center, 2012)
# The entries are a selection whose mix differs from that of the whole data set. Activity calls are given as the source filed them.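 Rule for the calls: active = activation above the run cutoff, the mean activation of all test compounds plus 3 SD (cut at about 40% in these data); inactive = the rest.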
# Experiment: ATP EC20 calcium response enhancers, parental CHO-K1 – cell-based, Fluo-8 calcium fluorescence, full deck, 1536-well, counter-screen for M1 PAM project, primary screen (AID 602247);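 note: peak over basal fluorescence ratio in a 140 s read after ATP addition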
# Details: parental CHO-K1, ATP EC20, Fluo-8 calcium fluorescence; at 3 µM; hits give high values; 0% at ATP EC20, 100% at ATP max
row,Structure (SMILES),activation
1,O=C(NCC1(N2CCCCC2)CCCCC1)c1ccc(OC(F)F)cc1,inactive: 21.9%
2,CC(C)(C)n1nnnc1C(c1ccccc1OC(F)(F)F)N1CCC(n2c(=O)[nH]c3ccccc32)CC1 (centres undefined),inactive: 35.6%
3,N#CC1(Nc2ccccc2)CCN(CCc2ccccc2)CC1,inactive: 22.7%
4,O=c1[nH]c2ccccc2n1C1CCN(C(c2ccccc2OC(F)(F)F)c2nnnn2C2CCCC2)CC1 (centres undefined),inactive: 0.68%
5,CCN1CCC(Nc2ccc(Cl)cc2)CC1,inactive: 0.66%
6,CSc1ccc(C(=O)NCC2(N3CCOCC3)CCCCC2)cc1,inactive: -0.63%
7,O=C(NCC1(N2CCCCC2)CCCCC1)c1cccc([N+](=O)[O-])c1,inactive: 23.2%
8,O=C(NCC1(N2CCCCC2)CCCCC1)c1cccc(C(F)(F)F)c1,inactive: 16.7%
9,COc1cc(C(=O)NCC2(N3CCCCC3)CCCCC2)ccc1OC(F)F,inactive: 16.9%
10,O=C(NCC1(N2CCOCC2)CCCCC1)c1cc(=O)[nH]c2ccccc12,inactive: 14.1%
11,CCCCn1nnnc1C(c1cccc2ccccc12)N1CCC(n2c(=O)[nH]c3ccccc32)CC1 (centres undefined),inactive: 38.6%
12,CN1CCN(CCOC(=O)C(O)(c2ccccc2)c2ccccc2)CC1,inactive: 7.85%
13,COc1ccc(NC2CCN(C(=O)OC(C)(C)C)CC2)cc1,inactive: 13.1%
14,CC(C)c1ccc(C(=O)NCC2(N3CCOCC3)CCCCC2)cc1,inactive: 5.36%
15,CC(C)c1ccc(NC2CCN(C(=O)OC(C)(C)C)CC2)cc1,inactive: 1.12%
16,CCCCn1nnnc1C(c1ccccc1OC(F)(F)F)N1CCC(n2c(=O)[nH]c3ccccc32)CC1 (centres undefined),inactive: 36.3%
17,CN(C)c1cccc(C(=O)NCC2(N3CCCCC3)CCCCC2)c1,inactive: -10.3%
18,COc1ccc(CN(CCCl)CCCl)cc1Cl,inactive: 25%
19,CCC(c1nnnn1C(C)(C)C)N1CCC(n2c(=O)[nH]c3ccccc32)CC1 (centres undefined),inactive: 9.45%
20,O=C(NCC1(N2CCOCC2)CCCCC1)c1cc(F)c(F)cc1Cl,inactive: 3.32%
21,COc1cc(OC)c(C(=O)NCC2(N(C)C)CCCCC2)cc1OC,inactive: 13.5%
22,CCCCn1nnnc1C(c1ccnc2ccccc12)N1CCC(n2c(=O)[nH]c3ccccc32)CC1 (centres undefined),inactive: 19.8%
23,O=C(NCC1(N2CCCCC2)CCCCC1)c1cncc(Br)c1,inactive: 13.9%
24,CN1CCC(Nc2cccc(F)c2)CC1,inactive: 12.6%
25,COc1ccc(C(c2nnnn2C2CCCC2)N2CCC(n3c(=O)[nH]c4ccccc43)CC2)cc1 (centres undefined),inactive: 6.53%
26,CCCOc1ccc(C(=O)NCC2(N(C)C)CCCCC2)cc1OC,inactive: 15%
27,Cc1ccc(C(=O)NCC2(N(C)C)CCCCC2)o1,inactive: -1.06%

row,Structure (SMILES),activation
1,CCC(c1nnnn1C1CCCC1)N1CCC(n2c(=O)[nH]c3ccccc32)CC1 (centres undefined),inactive: -1.14%
2,COc1ccc(C(=O)NCC2(N3CCCCC3)CCCCC2)c(OC)c1OC,inactive: -5.04%
3,CC(C)(C)OC(=O)N1CCC(N(C(=O)c2ccccc2)c2ccc(F)cc2)CC1,inactive: 24.2%
4,COc1ccc(C(=O)NCC2(N3CCCCC3)CCCCC2)cc1,inactive: 6.82%
5,CCCCn1nnnc1C(c1cccs1)N1CCC(n2c(=O)[nH]c3ccccc32)CC1 (centres undefined),inactive: -1.67%
6,CCCCn1nnnc1C(CC)N1CCC(n2c(=O)[nH]c3ccccc32)CC1 (centres undefined),inactive: 4.33%
7,O=C(NCC1(N2CCCCC2)CCCCC1)c1cccs1,inactive: 4.68%
8,O=C(NCC1(N2CCCCC2)CCCCC1)c1ccc(=O)[nH]c1,inactive: 17.8%
9,Cc1cccc(NC2(C#N)CCN(Cc3ccccc3)CC2)c1,inactive: -0.26%
10,CSc1ccccc1C(=O)NCC1(N2CCCCC2)CCCCC1,inactive: 3.16%
11,Cc1cc(C)cc(N(C(=O)c2ccccc2)C2CCN(C(=O)OC(C)(C)C)CC2)c1,inactive: 12.3%
12,O=c1[nH]c2ccccc2n1C1CCN(C(c2ccccc2OC(F)(F)F)c2nnnn2C2CCCCC2)CC1 (centres undefined),inactive: 2.62%
13,O=C(NCC1(N2CCCCC2)CCCCC1)c1ccc(Cl)nc1,inactive: 12.4%
14,O=C(NCC1(N2CCOCC2)CCCCC1)c1cc2ccccc2o1,inactive: 14.8%
15,COc1ccc(Cl)cc1C(=O)NCC1(N2CCOCC2)CCCCC1,inactive: 7.04%
16,O=C(OC1CN2CCC1CC2)C1c2ccccc2Oc2ccccc21 (centres undefined),inactive: 17.6%
17,O=c1[nH]c2ccccc2n1C1CCN(C(c2cc3ccccc3o2)c2nnnn2C2CCCCC2)CC1 (centres undefined),inactive: 12.1%
18,N#CC1(Nc2ccccc2)CCN(Cc2ccccc2)CC1,inactive: 19%
19,O=C(NCC1(N2CCCCC2)CCCCC1)c1ccc(Cl)s1,inactive: -0.36%
20,CCCCn1nnnc1C(c1ccc(OC)cc1)N1CCC(n2c(=O)[nH]c3ccccc32)CC1 (centres undefined),inactive: 18.4%
21,CCOC(=O)N1CCC(Nc2ccc(OC)cc2)CC1,inactive: 21.4%
22,O=C1CCN(Cc2ccccc2)CC1,inactive: 18.4%
23,CC(C)(C)n1nnnc1C(c1ccccc1)N1CCC(n2c(=O)[nH]c3ccccc32)CC1 (centres undefined),inactive: 8.14%
24,CCOc1ccc(C)cc1CN(CCCl)CCCl,inactive: -1.49%
25,COc1ccc(NC2CCN(CCc3ccccc3)CC2)c(OC)c1,inactive: 11.8%
26,CCOC(=O)N1CCC(Nc2ccc(F)cc2)CC1,inactive: 12.6%
27,O=C(NCC1(N2CCCCC2)CCCCC1)c1ccc(F)cc1,inactive: -8.22%
